Measured values from US20240360179A1, “STAPLED PEPTIDES AND METHODS THEREOF” (FOG PHARMACEUTICALS, INC., priority 2021, published 2024).
Read-outs that look alike come from different tables or passages of the source.

Amino acid sequences for entries named in this document (tags omitted).
UniProt P35222, whole entry: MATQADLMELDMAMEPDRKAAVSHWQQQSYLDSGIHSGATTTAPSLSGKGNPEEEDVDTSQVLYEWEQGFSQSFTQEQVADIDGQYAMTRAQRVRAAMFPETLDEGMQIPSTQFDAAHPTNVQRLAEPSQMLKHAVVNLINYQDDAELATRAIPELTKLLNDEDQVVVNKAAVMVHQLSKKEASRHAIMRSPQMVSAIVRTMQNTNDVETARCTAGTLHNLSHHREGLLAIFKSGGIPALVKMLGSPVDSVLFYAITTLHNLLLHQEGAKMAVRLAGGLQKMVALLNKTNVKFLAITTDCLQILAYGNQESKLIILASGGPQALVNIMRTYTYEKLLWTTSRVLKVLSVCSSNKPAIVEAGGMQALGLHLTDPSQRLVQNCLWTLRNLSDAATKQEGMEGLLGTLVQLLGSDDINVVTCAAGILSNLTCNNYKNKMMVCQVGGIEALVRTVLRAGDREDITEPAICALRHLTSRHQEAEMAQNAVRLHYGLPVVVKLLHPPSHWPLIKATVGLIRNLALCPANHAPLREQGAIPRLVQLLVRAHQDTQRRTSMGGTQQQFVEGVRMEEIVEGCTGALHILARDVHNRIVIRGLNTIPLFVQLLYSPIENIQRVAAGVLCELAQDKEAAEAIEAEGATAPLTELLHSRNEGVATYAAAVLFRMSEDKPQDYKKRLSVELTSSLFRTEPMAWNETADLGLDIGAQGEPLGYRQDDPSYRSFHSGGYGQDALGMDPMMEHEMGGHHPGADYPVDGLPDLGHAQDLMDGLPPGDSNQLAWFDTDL

Legend:
[1] = molecular target: T1, full-length B-Catenin (Uniprot ID P35222) (Homo sapiens, UniProt P35222); type: binding; conditions: competition fluorescence polarization; read-out: beta-Catenin FP IC50
T1 construct: 10 nM full-length B-Catenin (Uniprot ID P35222)

[2] = molecular target: beta-catenin/TCF4 interaction (Homo sapiens, UniProt P35222); type: cell-based; set-up: host or cells: HEK293; conditions: read-out: NanoBRET Abs IC50

Ac-PL3-Asp-Npg-B5-Asp-3COOHF-Aib-Ala-Phe-dDab*3-PyrS2-3Thi-BztA-GlnR*3-Ala-Ala-Ala-Ala-Ala-NH2 [I-790]
IC50 [1]: < 50 nM
IC50 [2]: 3000 to 10000 nM

Ac-PL3-Asp-Npg-B5-Asp-3COOHF-Aib-Ala-Phe-dOrn*3-PyrS2-3Thi-BztA-AsnR*3-Ala-NH2 [I-793]
IC50 [1]: < 50 nM
IC50 [2]: > 10000 nM

Ac-PL3-Asp-Npg-B5-Asp-3COOHF-Aib-Ala-Phe-dOrn*3-PyrS2-3Thi-BztA-AsnR*3-NH2 [I-792]
IC50 [1]: < 50 nM
IC50 [2]: > 10000 nM

Ac-PL3-Asp-Npg-B5-Asp-3COOHF-Aib-Ala_D3-Phe-Lys*3-PyrS2-3Thi-BztA-GlnR*3-Ala D3-NH2 [I-803]
IC50 [1]: < 50 nM
IC50 [2]: < 1500 nM

Ac-PL3-Asp-Npg-B5-Asp-3COOHF-Aib-Gln-Phe-Lys*3-PyrS2-3Thi-BztA-GlnR*3-Ala-NH2 [I-452]
IC50 [1]: < 50 nM
IC50 ([2]; absolute IC50): > 10000 nM

Ac-PL3-Asp-Npg-B5-Asp-3COOHF-Aib-Leu-Phe-Lys*3-PyrS2-3Thi-BztA-GlnR*3-Ala-NH2 [I-450]
IC50 [1]: < 50 nM
IC50 ([2]; absolute IC50): > 10000 nM

Ac-PL3-Asp-Npg-B5-Asp-3COOHF-Aib-Lys-Phe-Lys*3-PyrS2-3Thi-BztA-GlnR*3-Ala-NH2 [I-455]
IC50 [1]: < 50 nM
IC50 ([2]; absolute IC50): > 10000 nM

Ac-PL3-Asp-Npg-B5-Asp-3COOHF-Aib-Val-Phe-Lys*3-PyrS2-3Thi-BztA-GlnR*3-Ala-NH2 [I-448]
IC50 [1]: < 50 nM
IC50 ([2]; absolute IC50): > 10000 nM

Ac-PL3-Asp-Npg-B5-Asp-3COOHF-Ala-Ala-Phe-Leu-[Red][Gly]Dap-3thi-BztA-Ala-GlnR-NH2 [I-1213]
IC50 [1]: 50 to 200 nM
IC50 [2]: > 10000 nM

Ac-PL3-Asp-Npg-B5-Asp-3COOHF-Ala-Ala-Phe-Leu-[Red][NHPent]Dap-3thi-BztA-Ala-GlnR-NH2 [I-1214]
IC50 [1]: 50 to 200 nM
IC50 [2]: > 10000 nM

Ac-PL3-Asp-Npg-B5-Asp-3COOHF-Ala-Ala-Phe-Leu-[SBut][CH2CH2CH2NH]Dap-3thi-BztA-Ala-GlnR-NH2 [I-1216]
IC50 [1]: 50 to 200 nM
IC50 [2]: > 10000 nM

Ac-PL3-Asp-Npg-B5-Asp-3COOHF-Ala-Ala-Phe-Leu-[SBut][CH2CH2NH]Dap-3thi-BztA-Ala-GlnR-NH2 [I-1215]
IC50 [1]: < 50 nM
IC50 [2]: > 10000 nM

Ac-PL3-Asp-Npg-B5-Asp-3COOHF-Ala-Ala-Phe-Lys*3-PyrS2-2F3MeF-34ClF-GlnR*3-Ala-NH2 [I-823]
IC50 [1]: < 50 nM
IC50 [2]: 3000 to 10000 nM

Ac-PL3-Asp-Npg-B5-Asp-3COOHF-Ala-Ala-Phe-Lys*3-PyrS2-2F3MeF-34ClF-GlnR*3-Leu-NH2 [I-827]
IC50 [1]: < 50 nM
IC50 [2]: 3000 to 10000 nM

Ac-PL3-Asp-Npg-B5-Asp-3COOHF-Ala-Ala-Phe-Lys*3-PyrS2-2F3MeF-34ClF-GlnR*3-Val-Ser-NH2 [I-826]
IC50 [1]: < 50 nM
IC50 [2]: 3000 to 10000 nM

Ac-PL3-Asp-Npg-B5-Asp-3COOHF-Ala-Ala-Phe-Lys*3-PyrS2-2F3MeF-BztA-AsnR*3-Ala-NH2 [I-59]
IC50 [1]: 50 to 200 nM
IC50 [2]: > 10000 nM

Ac-PL3-Asp-Npg-B5-Asp-3COOHF-Ala-Ala-Phe-Lys*3-PyrS2-2F3MeF-BztA-GlnR*3-Val-NH2 [I-820]
IC50 [1]: < 50 nM
IC50 [2]: 3000 to 10000 nM

Ac-PL3-Asp-Npg-B5-Asp-3COOHF-Ala-Ala-Phe-Lys*3-PyrS2-2F3MeF-BztA-GlnR*3-Val-Ser-NH2 [I-822]
IC50 [1]: < 50 nM
IC50 [2]: 1500 to 3000 nM

Ac-PL3-Asp-Npg-B5-Asp-3COOHF-Ala-Ala-Phe-Lys*3-PyrS2-Phe-34ClF-GlnR*3-Ala-NH2 [I-831]
IC50 [1]: < 50 nM
IC50 [2]: 3000 to 10000 nM

Ac-PL3-Asp-Npg-B5-Asp-3COOHF-Ala-Ala-Phe-Lys*3-PyrS2-Phe-34ClF-GlnR*3-Leu-NH2 [I-837]
IC50 [1]: < 50 nM
IC50 [2]: 3000 to 10000 nM

Ac-PL3-Asp-Npg-B5-Asp-3COOHF-Ala-Ala-Phe-Lys*3-PyrS2-Phe-34ClF-GlnR*3-Leu-Ser-NH2 [I-839]
IC50 [1]: < 50 nM
IC50 [2]: 1500 to 3000 nM

Ac-PL3-Asp-Npg-B5-Asp-3COOHF-Ala-Ala-Phe-Lys*3-PyrS2-Phe-34ClF-GlnR*3-Leu-Ser-NH2 [I-840]
IC50 [1]: < 50 nM
IC50 [2]: 3000 to 10000 nM

Ac-PL3-Asp-Npg-B5-Asp-3COOHF-Ala-Ala-Phe-Lys*3-PyrS2-Phe-34ClF-GlnR*3-Val-NH2 [I-833]
IC50 [1]: < 50 nM
IC50 [2]: 3000 to 10000 nM

Ac-PL3-Asp-Npg-B5-Asp-3COOHF-Ala-Ala-Phe-Lys*3-PyrS2-Phe-34ClF-GlnR*3-Val-NH2 [I-834]
IC50 [1]: < 50 nM
IC50 [2]: 1500 to 3000 nM

Ac-PL3-Asp-Npg-B5-Asp-3COOHF-Ala-Ala-Phe-Lys*3-PyrS2-Phe-34ClF-GlnR*3-Val-Ser-NH2 [I-835]
IC50 [1]: < 50 nM
IC50 [2]: 3000 to 10000 nM

Ac-PL3-Asp-Npg-B5-Asp-3COOHF-Ala-Ala-Phe-Lys*3-SPip3-3Thi-BztA-GlnR*3-Ala-NH2 [I-781]
IC50 [1]: < 50 nM
IC50 [2]: > 10000 nM

Ac-PL3-Asp-Npg-B5-Asp-3COOHF-Cha-Ala-Phe-Lys*3-PyrS2-2F3MeF-BztA-GlnR*3-Leu-NH2 [I-111]
IC50 [1]: 50 to 200 nM
IC50 [2]: 3000 to 10000 nM
